A selection: hits, their analogues and other compounds. The true share with any hit is near 2.3%.
Nrf2 activator – activators of Nrf2 (ARE) signaling. Potency, µM (series often up to 46.1 µM), actives largely listed as activators. 410,000 compounds, 0.31% hits. AID 624171. AREc32 ARE-luciferase reporter (MCF7-derived line), luminescence, 24 h; also: nearly all actives have a fitted effect of over 65% in size
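For detection, Steady-Glo was added and plates sat 30 min at RT; before that, AREc32_Fluc cells grown overnight in OPTI-MEM/5% FBS had been treated with 23 nL compound for 24 hr at 37 deg C.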
Rango dissoc inh – inhibitors of RanGTP-induced Rango-importin beta complex dissociation. Potency, µM (series often up to 46.1 µM). AID 540253. 340,000 compounds, 0.071% hits. O95149+P62826. Biochemical FRET Rango-importin beta, RanGTP-induced dissociation; calls by dose curve; also: nearly all actives have a fitted effect of over 45% in size
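Recombinant Rango FRET biosensor (EYFP–snurportin 1 IBB–cerulean CFP10) at 0.1 uM premixed with 0.25 uM importin beta in PBS, 1 mM DTT, 0.02% Tween-20, 0.1% BSA. Compound added 5 min; RanGTP-RCC1 (0.6 uM Ran, 2 mM GTP, 0.2 uM RCC1) then triggers release, read at 45 min.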
Rango-impB inh – inhibitors of Rango-importin beta complex formation; Potency, µM (doses to about 92.2 µM); Rango CFP/YFP FRET sensor + importin beta, 45 min; 340,000 compounds, 0.031% hits; calls by dose curve; also: nearly all actives have a fitted effect of over 15% in size
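Inhibition scored from the CFP 486 nm/YFP 530 nm FRET ratio 45 min after adding 0.125 microM importin beta to 50 nM Rango biosensor preincubated 5 min with compound (room temperature, PBS with DTT, Tween-20, BSA). No-importin wells as positive control.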
A549 tox – kills or reduces viability of A549 cells in Nrf2 counter-screen; A549 ARE-Fluc cells, CellTiter-Fluor viability, 18-24 h; Potency, µM (highest dose often 46 µM), most hits filed as inhibitors; 390,000 compounds, 0.16% hits
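A549 ARE_Fluc cells in 5% FBS OPTI-MEM were exposed to compounds in concentration-response for 18-24 h at 37 deg C. Viability was read by CellTiter-Fluor fluorescence (Ex 405/Em 525) after 30 min, before the luciferase read.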
Nrf2 inh – Nrf2 pathway inhibition; A549 ARE-Fluc reporter, luciferase luminescence, 18-24 h; Potency, µM (titrated, usually from 46 µM), hits mostly inhibitors; 360,000 compounds, 2.1% hits; AID 504444; also: nearly all actives have a fitted effect of over 60% in size
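Concentration-response testing used A549 ARE_Fluc cells at 5000 cells/well. Following an 18-24 h compound incubation, viability was read by fluorescence (Ex 405/Em 525) and luciferase output by luminescence.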
Hits are given with their value; . = inactive; ? = inconclusive; / = not tested or not shown. Unless noted, calls follow the shape of the dose curve; as a rule, active = well fitted curve in the direction sought with a large enough effect; inconclusive = small, poorly fitted or top-dose-only effect, or another doubt; inactive = no such curve, though single readings can be large; an effect the other way counts as inactive or inconclusive.

SMILES | Nrf2 activator | Rango dissoc inh | Rango-impB inh | A549 tox | Nrf2 inh
Cc1cc(C)c(NC(=O)Cn2c(=O)n(Cc3ccc(C(=O)NCc4ccco4)cc3)c(=O)c3sccc32)c(C)c1 | . | / | / | . | ?
Cc1cccc(C)c1NC(=O)Cn1c(=O)n(Cc2ccc(C(=O)NCc3ccco3)cc2)c(=O)c2sccc21 | . | / | / | . | 18µM
Cc1cccc(NC(=O)c2ccc3snnc3c2)c1C | . | / | / | . | .
COc1ccc(NC(=O)CSc2nc3cc(OC)c(OC)cc3c3nc(-c4ccccc4)nn23)cc1Cl | . | / | / | . | .
Cn1c(C(=O)N2CCN(c3ccccc3)CC2)cc2cc(Cl)ccc21 | . | . | . | . | .
CCOc1ccc(CN(C)c2ccc(S(=O)(=O)N3CCN(C)CC3)cc2[N+](=O)[O-])cc1OC | . | . | . | . | 16µM
C=CCOc1ccc(CN(C)c2ccc(S(=O)(=O)N3CCN(C)CC3)cc2[N+](=O)[O-])cc1 | . | . | . | . | .
COCCCNC(=S)N1CCCN(c2nc3cc(C)ccc3cc2C#N)CC1 | . | ? | ? | . | 16µM
COCCCNC(=S)N1CCCN(c2nc3cc(C)c(C)cc3cc2C#N)CC1 | . | ? | ? | . | ?
CCc1cccc(NC(=O)c2nc(-c3ccncc3)no2)c1 | . | / | / | . | ?
CCOC(=O)N1CC=C2C(C#N)=C(N)C(C#N)(C#N)[C@H](c3ccccc3OCC)[C@H]2C1 | . | . | . | ? | 16µM
N#CC1=C(N)C(C#N)(C#N)C(c2ccncc2)C2CN(C(=O)OCc3ccccc3)CC=C12 (centres undefined) | ? | ? | ? | . | 23µM
N#C/C(=C/c1ccc(Cl)cc1)c1nc(-c2ccc(Br)cc2)cs1 | . | / | / | . | .
N#CC(=Cc1ccccn1)c1nc(-c2ccc(Cl)cc2)cs1 | 13µM | / | / | / | /
O=C(Nc1ccc2ccccc2n1)c1ccccc1 | 11µM | . | . | . | ?
Cc1ccc(C(=O)Nc2ccc3ccccc3n2)cc1 | . | . | . | . | ?
Cc1cc(C)cc(NC(=O)Nc2ccc3ccccc3n2)c1 | . | . | . | . | .
O=C(Nc1ccccn1)c1ccc2ccccc2n1 | 3.2µM | . | . | . | ?
O=C(Nc1ccc2ccccc2n1)c1ccccc1Br | 11µM | . | . | . | ?
CS(=O)(=O)N1CCN(c2ccccc2NC(=O)c2cc3ccccc3o2)CC1 | . | . | . | . | .
Cc1nc2ccc(NC(=O)c3ccc(C)c(S(=O)(=O)N4CCOCC4)c3)cc2s1 | . | . | . | . | ?
COc1cccc(Cn2ncc3c4sc(SC)cc4n(C)c3c2=O)c1 | / | / | / | . | ?
Cc1cc(SCC(=O)NC2CC2)nc2ccccc12 | . | . | . | . | .
Cc1cc(SCC(=O)NCC2CCCO2)nc2ccccc12 (centres undefined) | . | . | 37µM | . | .
CC[N+](CC)(CC#Cc1ccccc1)CC#Cc1ccccc1 | . | . | . | . | 15µM
SMILES | Nrf2 activator | Rango dissoc inh | Rango-impB inh | A549 tox | Nrf2 inh
COc1cccc(CN2C(=O)c3ccccc3Sc3ccc(C(=O)OCc4ccco4)cc32)c1 | . | / | / | . | /
CC(=O)N(/C=C1\SC(=S)N(c2ccccc2)C1=O)c1ccccc1 | . | 16µM | ? | . | .
CCN1C(=O)/C(=C\N(C(C)=O)c2ccccc2)OC1=S | ? | . | . | . | .
O=C1/C(=C/c2cccs2)SC(=S)N1c1ccccc1 | . | . | . | ? | 10µM
Cn1nc(C(=O)N2CCN(S(=O)(=O)c3ccc(Cl)cc3)CC2)c2ccccc2c1=O | . | . | . | . | 23µM
CCOC(=O)c1ccc(S(=O)(=O)N2CCN(C(=O)c3nn(C)c(=O)c4ccccc34)CC2)cc1 | . | . | . | . | .
CC(C)OC(=O)CC1C(=O)NCCN1C(=S)NC(=O)c1cccs1 (centres undefined) | . | . | . | . | .
CCN1/C(=C/C=C/c2oc3ccc(-c4ccccc4)cc3[n+]2CC)Oc2ccc(-c3ccccc3)cc21 | . | ? | ? | 15µM | 5.8µM
COc1cc(C(=O)NCc2nc3cccnc3n2Cc2ccc(C)cc2)cc(OC)c1OC | . | / | / | . | /
Oc1ccc(NCc2ccccc2F)c2cccnc12 | / | / | / | . | .
CC1=CC2C(C(O)CC3(C)C2CC(C)C32OCOC23COCO3)C2(C)C/C(=C\O)C(=O)C=C12 (centres undefined) | . | . | ? | ? | 21µM
COc1cc(-c2noc(C3CCCN(C(=O)c4ccccc4)C3)n2)cc(OC)c1OC (centres undefined) | . | . | . | . | .
O=S(=O)(c1ccc(SCCOc2ccc(Br)cc2)nc1)N1CCCC1 | . | . | . | . | 16µM
CCOc1ccc(OCCSc2ccc(S(=O)(=O)N3CCN(C)CC3)cn2)cc1 | . | . | . | . | ?
O=S(=O)(c1ccc(SCc2ccc(Cl)cc2)nc1)N1CCCC1 | . | . | . | . | ?
N#Cc1ccccc1Oc1ccc(S(=O)(=O)N2CCCCC2)cn1 | . | . | . | . | .
O=S(=O)(c1ccc(SCCOc2ccc(Cl)cc2)nc1)N1CCCC1 | . | . | . | . | 18µM
O=S(=O)(c1ccc(Oc2ccc(Br)cc2F)nc1)N1CCCCC1 | . | . | . | . | 16µM
CC(C)N(C(=O)CSc1ccc(S(=O)(=O)N2CCCCC2)cn1)c1ccccc1 | . | . | . | . | 9.2µM
CCCN(CCC)c1nn2c(=O)c(C(=O)NCc3cc(Br)ccc3OC)cnc2s1 | . | / | / | . | ?
O=C(COC(=O)CCc1c[nH]c2ccccc12)NC(c1ccccc1)c1ccccc1 | . | . | . | . | .
N#CC1=C(SCc2ccccc2)NC(=O)CC1c1ccc(O)cc1 (centres undefined) | . | . | . | . | .
Cc1ccc(C2CC(=O)NC(SCc3ccccc3)=C2C#N)cc1 (centres undefined) | . | . | . | . | 10µM
O=C(NC1CCN(Cc2ccccc2)CC1)c1cccc(S(=O)(=O)Nc2ccc(SC(F)F)cc2)c1 | . | . | . | ? | 16µM
Cc1ccc(S(=O)(=O)Nc2cccc(C(=O)NC3CCN(Cc4ccccc4)CC3)c2)cc1F | . | . | . | ? | 10µM
SMILES | Nrf2 activator | Rango dissoc inh | Rango-impB inh | A549 tox | Nrf2 inh
Cc1ccc(NS(=O)(=O)c2cccc(C(=O)NC3CCN(Cc4ccccc4)CC3)c2)cc1 | . | . | . | . | ?
O=C(NC1CCN(Cc2ccccc2)CC1)c1cccc(NS(=O)(=O)c2ccc(Br)cc2)c1 | . | . | . | . | .
CCC(=NCCc1c(C)[nH]c2ccccc12)C1=C(O)CC(c2ccccc2)CC1=O (centres undefined) | . | . | . | . | .
CCC(=NCCc1c(C)[nH]c2ccc(OC(F)(F)F)cc12)C1=C(O)CC(c2ccccc2)CC1=O (centres undefined) | . | . | ? | ? | 21µM
CCc1ccc(-n2nc3cc(C)c(NC(=O)c4cc(Cl)ccc4OC)cc3n2)cc1 | . | / | / | . | .
CC(=O)c1nc(N2CCN(S(=O)(=O)c3ccc(C)cc3)CC2)c2ccccc2n1 | / | / | / | . | .

Screening results (PubChem BioAssay)
